Experimental data: ChEMBL document CHEMBL5608169, “A chemical modification of a peroxisome proliferator-activated receptor pan agonist produced a shift to a new dual alpha/gamma partial agonist endowed with mitochondrial pyruvate carrier inhibition and antidiabetic properties” (Eur J Med Chem, 2024)

molecular target: T1, Peroxisome proliferator-activated receptor delta (Homo sapiens) (UniProt Q03181); assay: Partial agonist activity at N-terminal Gal4-fused human PPARdelta LBD transfected in human HepG2 cells assessed as maximum efficacy at 50 uM incubated for 20 hrs by luciferase based luminometric assay relative to control; type: cell-based
T1 sequence (whole entry): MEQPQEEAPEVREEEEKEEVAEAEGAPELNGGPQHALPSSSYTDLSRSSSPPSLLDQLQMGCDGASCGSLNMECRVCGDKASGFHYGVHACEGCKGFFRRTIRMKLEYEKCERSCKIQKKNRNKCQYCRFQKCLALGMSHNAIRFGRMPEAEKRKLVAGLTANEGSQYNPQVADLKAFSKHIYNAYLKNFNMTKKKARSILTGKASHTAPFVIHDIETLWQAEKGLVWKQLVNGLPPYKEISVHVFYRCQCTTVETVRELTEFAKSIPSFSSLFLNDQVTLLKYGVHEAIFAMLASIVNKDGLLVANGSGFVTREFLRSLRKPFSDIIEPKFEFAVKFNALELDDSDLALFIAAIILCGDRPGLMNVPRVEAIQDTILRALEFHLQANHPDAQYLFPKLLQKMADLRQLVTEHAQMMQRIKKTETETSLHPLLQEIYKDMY

SMILES | Emax [%]
C[C@H](Oc1ccc(-c2cccc3ccccc23)cc1)C(=O)O | 12
C[C@@H](Oc1ccc(-c2cccc3ccccc23)cc1)C(=O)O | 17

Continued, values first:

Emax [%] | SMILES
12 | CC[C@](C)(Oc1ccc(-c2cccc3ccccc23)cc1)C(=O)O.NC1CCCCC1
17 | CCC(C)(Oc1ccc(-c2cccc3ccccc23)cc1)C(=O)O (racemic)
17 | CC[C@@](C)(Oc1ccc(-c2cccc3ccccc23)cc1)C(=O)O.NC1CCCCC1
